Activity calls are given as the source filed them. No cut-off for these calls is given here.
Key:
[1] = biological target: Aminopeptidase A (Rattus norvegicus) (UniProt P50123); settings: dose 2.0 mg/kg, route iv, time 30.0 min
[2] = biological target: Aminopeptidase A (Rattus norvegicus) (UniProt P50123); settings: dose 2.0 mg/kg, route iv, time 30.0 min; remark: listed apart in the source
[3] = biological target: Aminopeptidase A (Rattus norvegicus) (UniProt P50123); settings: dose 2.0 mg/kg, route iv, time 30.0 min; remark: listed apart in the source
[4] = biological target: Aminopeptidase A (Rattus norvegicus) (UniProt P50123); settings: dose 100.0 mg/kg, route iv, time 30.0 min
[5] = biological target: Aminopeptidase A (Rattus norvegicus) (UniProt P50123); settings: dose 100.0 mg/kg, route iv, time 30.0 min; remark: listed apart in the source
[6] = biological target: Aminopeptidase A (Rattus norvegicus) (UniProt P50123); settings: dose 100.0 mg/kg, route iv, time 30.0 min; remark: listed apart in the source

Amino acid sequences for entries named in this document (tags omitted).
UniProt P50123, whole entry: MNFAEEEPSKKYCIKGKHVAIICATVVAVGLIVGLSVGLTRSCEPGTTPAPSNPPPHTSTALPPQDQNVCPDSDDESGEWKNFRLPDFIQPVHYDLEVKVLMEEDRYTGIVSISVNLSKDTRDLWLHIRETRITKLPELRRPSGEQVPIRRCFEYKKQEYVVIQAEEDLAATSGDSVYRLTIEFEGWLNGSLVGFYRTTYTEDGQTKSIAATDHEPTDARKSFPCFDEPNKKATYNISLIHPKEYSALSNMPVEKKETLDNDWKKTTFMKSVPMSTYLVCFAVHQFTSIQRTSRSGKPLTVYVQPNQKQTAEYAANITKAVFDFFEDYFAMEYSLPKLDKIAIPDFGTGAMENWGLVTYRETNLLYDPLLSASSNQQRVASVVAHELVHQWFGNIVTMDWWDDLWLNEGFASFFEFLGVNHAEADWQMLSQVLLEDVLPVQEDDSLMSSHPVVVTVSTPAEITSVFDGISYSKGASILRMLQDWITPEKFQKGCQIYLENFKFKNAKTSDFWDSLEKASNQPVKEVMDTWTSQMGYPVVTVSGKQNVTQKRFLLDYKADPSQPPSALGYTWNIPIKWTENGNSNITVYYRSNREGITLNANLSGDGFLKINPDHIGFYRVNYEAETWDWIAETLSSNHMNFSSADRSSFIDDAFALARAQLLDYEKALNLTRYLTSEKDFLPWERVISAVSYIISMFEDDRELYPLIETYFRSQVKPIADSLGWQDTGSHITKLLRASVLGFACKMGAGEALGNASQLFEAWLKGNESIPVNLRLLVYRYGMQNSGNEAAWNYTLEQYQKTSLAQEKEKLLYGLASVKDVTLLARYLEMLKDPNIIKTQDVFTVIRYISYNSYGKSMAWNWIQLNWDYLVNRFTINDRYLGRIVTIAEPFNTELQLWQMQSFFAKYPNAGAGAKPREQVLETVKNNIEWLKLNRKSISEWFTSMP

## COc1ccccc1CCP(=O)(O)[C@@H](N)CCC(=O)O
[1]
  inhibition: 71%
[2]
  inhibition: 66%
[3]
  inhibition: 78%

## N[C@@H](CCS(=O)(=O)O)CSSC[C@@H](N)CCS(=O)(=O)O
[4]
  inhibition: inactive
[5]
  inhibition: inactive
[6]
  inhibition: 83%

Reference: ChEMBL document CHEMBL6074628, “Rational design, synthesis and pharmacological characterization of novel aminopeptidase A inhibitors” (Bioorg Med Chem Lett, 2024)
